{"sequences": {"note": "Chains of the proteins cited; added tags and fusions are not shown.", "UniProt P34972, whole entry": "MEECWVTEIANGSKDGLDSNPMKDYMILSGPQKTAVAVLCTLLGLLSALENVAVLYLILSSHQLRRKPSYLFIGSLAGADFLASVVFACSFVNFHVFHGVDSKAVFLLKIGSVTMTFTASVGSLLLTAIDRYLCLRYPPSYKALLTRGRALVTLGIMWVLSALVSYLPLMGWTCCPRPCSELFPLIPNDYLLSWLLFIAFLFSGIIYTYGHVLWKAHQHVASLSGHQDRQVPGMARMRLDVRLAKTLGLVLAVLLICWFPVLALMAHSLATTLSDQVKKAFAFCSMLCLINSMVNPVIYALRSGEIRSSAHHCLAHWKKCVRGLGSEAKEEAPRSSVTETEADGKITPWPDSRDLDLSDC"}, "source": "paper PMC9930120", "about": "(Journal of Chemical Information and Modeling, 2023)", "origin": "cited, not measured here", "biological_target": "human CB2 (Homo sapiens, UniProt P34972)", "settings": "cited from earlier work", "data": [{"molecule": "Cc1c(C(=O)NN2CCOCC2)nn(-c2ccc(Cl)cc2Cl)c1-c1ccc(I)cc1", "note": "[AM-281]", "values": [{"measurement": "Ki", "value": 4.87, "unit": "µM"}]}]}
